This is an account of results in US20240009269A1 (priority 2020, published 2024).

SMILES strings stand for the structures. Values after ≈ are worked out from the molar mass of the structure shown.

Data set [1] can be described thus: Solubility stated in text. Type of data set: physicochemical. The conditions noted are these: read-out: solubility of melittin.
Data set [2] relates to tissue-engineered dhBMECs microvessels. Description: BBB opening in tissue-engineered BBB microvessels (500 kDa dextran leakage). Type of data set: cell-based, human. The conditions noted are these: dose = concentration x perfusion time. As for the experimental part: Three-dimensional blood-brain barrier microvessels were fabricated as previously reported (FIGS. 10A and 10B) [Linville, R. M., et al., Biomaterials, 2019. 190-191: p. 24-37] 150 μm diameter and 1 cm long channels were patterned in 7 mg mL^−1 type I collagen (Corning) using nitinol wire (Malin Co.) housed within polydimethylsiloxane (PDMS; Dow Corning). Channels were cross-linked by incubation in 20 mM genipin (Wako Biosciences) for 2 hours to increase cell adhesion. 2dhBMECs were suspended in BBB induction medium at a concentration of 5×10^6 cells mL^−1 and seeded into channels. Microvessels were perfused using BBB induction medium for 24 hours and then switched to BBB maintenance medium. […]
Live-cell imaging was conducted to study dynamic changes in in vitro BBB permeability and microvessel structure. […] Phase contrast and fluorescence images were acquired every two minutes with the focal plane set to the microvessel midplane. […]
Image processing was performed using ImageJ (NIH) to quantify BBB opening (FIGS. 11A-11D). […] The permeability (cm s^−1) was calculated using P=(r/2)(1/ΔI)(dI/dt), where r is the vessel radius, ΔI is the increase in fluorescence intensity upon perfusion of the fluorophore, and (dI/dt) is the rate of increase in fluorescence intensity as solute exits into the gel. […]

In the case of `CC[C@H](C)[C@H](NC(=O)CN)C(=O)NCC(=O)N[C@@H](C)C(=O)N[C@H](C(=O)N[C@@H](CC(C)C)C(=O)N[C@@H](CCCCN)C(=O)N[C@H](C(=O)N[C@@H](CC(C)C)C(=O)N[C@H](C(=O)N[C@H](C(=O)NCC(=O)N[C@@H](CC(C)C)C(=O)N1CCC[C@H]1C(=O)N[C@@H](C)C(=O)N[C@@H](CC(C)C)C(=O)N[C@H](C(=O)N[C@@H](CO)C(=O)N[C@@H](Cc1c[nH]c2ccccc12)C(=O)N[C@H](C(=O)N[C@@H](CCCCN)C(=O)N[C@@H](CCCNC(=N)N)C(=O)N[C@@H](CCCCN)C(=O)N[C@@H](CCCNC(=N)N)C(=O)N[C@@H](CCC(N)=O)C(=O)N[C@@H](CCC(N)=O)C(N)=O)[C@@H](C)CC)[C@@H](C)CC)[C@@H](C)O)[C@@H](C)O)C(C)C)C(C)C` [melittin], the solubility (usually the dissolved amount per volume that the medium holds) in data set [1] was around 350 µM (≈ 996 µg/mL). Further, the “threshold dose for inducing focal leaks (opening)” value in data set [2] amounted to 20 µM·min.
